Source: ChEMBL document CHEMBL4732113, “Exploiting the tolerant region I of the non-nucleoside reverse transcriptase inhibitor (NNRTI) binding pocket. Part 2: Discovery of diarylpyrimidine derivatives as potent HIV-1 NNRTIs with high Fsp values and favorable drug-like properties” (Eur J Med Chem, 2021)

Experiment: Selectivity index, ratio of CC50 for human MT4 cells to EC50 for antiviral activity against HIV 3B infected in human MT4 cells
Assay type: toxicity, cell-based
Settings: read-out: Ratio CC50/EC50

Compound `Cc1cc(C#N)cc(C)c1Oc1nc(Nc2ccc(C#N)cc2)nc(N)c1Br` [ETRAVIRINE] has a selectivity ratio greater than 1100.
